From the Kinase Knowledgebase extract (Sharma et al. 2016)
Converted amounts (≈) assume the structure as drawn. Each block holds one compound with its values, some of them ahead of it.

By UniProt entry, the sequences of proteins in these tests, tags left out. Where a name states a change or a piece, a line headed by the entry shows the natural chain unless it says otherwise.
UniProt Q16539, whole entry, looked up: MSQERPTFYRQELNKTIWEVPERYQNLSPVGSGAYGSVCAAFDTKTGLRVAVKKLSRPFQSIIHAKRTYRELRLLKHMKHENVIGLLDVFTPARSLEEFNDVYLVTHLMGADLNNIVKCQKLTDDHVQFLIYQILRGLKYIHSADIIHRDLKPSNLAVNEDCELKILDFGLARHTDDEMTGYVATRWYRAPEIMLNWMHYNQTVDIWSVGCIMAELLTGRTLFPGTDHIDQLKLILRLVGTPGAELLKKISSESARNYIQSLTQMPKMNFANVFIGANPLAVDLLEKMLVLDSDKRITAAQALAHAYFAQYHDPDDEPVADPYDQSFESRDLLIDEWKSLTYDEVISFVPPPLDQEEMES
UniProt P42336, whole entry, looked up: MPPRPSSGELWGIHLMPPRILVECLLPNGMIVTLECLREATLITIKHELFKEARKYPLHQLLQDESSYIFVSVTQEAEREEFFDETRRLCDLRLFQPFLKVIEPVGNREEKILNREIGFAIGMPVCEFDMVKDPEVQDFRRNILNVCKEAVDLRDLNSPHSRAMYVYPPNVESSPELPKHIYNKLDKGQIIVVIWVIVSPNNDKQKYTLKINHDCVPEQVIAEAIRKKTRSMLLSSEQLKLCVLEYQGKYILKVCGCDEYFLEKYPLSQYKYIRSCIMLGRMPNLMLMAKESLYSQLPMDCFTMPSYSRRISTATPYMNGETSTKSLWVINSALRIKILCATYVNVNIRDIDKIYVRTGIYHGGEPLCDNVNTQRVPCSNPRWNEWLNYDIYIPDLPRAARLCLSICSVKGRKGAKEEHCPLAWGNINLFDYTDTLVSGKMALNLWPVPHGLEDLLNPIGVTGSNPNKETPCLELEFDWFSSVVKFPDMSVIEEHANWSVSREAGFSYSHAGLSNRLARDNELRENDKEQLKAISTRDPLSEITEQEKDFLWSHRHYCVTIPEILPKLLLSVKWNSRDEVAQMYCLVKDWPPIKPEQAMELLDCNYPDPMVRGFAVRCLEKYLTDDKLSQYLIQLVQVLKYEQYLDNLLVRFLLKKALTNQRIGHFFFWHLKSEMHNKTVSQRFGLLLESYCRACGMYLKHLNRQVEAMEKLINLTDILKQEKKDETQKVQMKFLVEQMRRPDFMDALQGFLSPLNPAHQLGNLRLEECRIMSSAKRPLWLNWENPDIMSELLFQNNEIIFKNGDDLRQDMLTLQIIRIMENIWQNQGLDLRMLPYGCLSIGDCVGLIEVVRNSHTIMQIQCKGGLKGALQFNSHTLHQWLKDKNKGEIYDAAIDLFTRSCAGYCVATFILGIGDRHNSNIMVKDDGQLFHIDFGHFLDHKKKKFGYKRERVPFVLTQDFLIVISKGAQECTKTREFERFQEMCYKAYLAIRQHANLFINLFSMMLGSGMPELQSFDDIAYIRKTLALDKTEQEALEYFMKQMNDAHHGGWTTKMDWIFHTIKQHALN
UniProt O75116: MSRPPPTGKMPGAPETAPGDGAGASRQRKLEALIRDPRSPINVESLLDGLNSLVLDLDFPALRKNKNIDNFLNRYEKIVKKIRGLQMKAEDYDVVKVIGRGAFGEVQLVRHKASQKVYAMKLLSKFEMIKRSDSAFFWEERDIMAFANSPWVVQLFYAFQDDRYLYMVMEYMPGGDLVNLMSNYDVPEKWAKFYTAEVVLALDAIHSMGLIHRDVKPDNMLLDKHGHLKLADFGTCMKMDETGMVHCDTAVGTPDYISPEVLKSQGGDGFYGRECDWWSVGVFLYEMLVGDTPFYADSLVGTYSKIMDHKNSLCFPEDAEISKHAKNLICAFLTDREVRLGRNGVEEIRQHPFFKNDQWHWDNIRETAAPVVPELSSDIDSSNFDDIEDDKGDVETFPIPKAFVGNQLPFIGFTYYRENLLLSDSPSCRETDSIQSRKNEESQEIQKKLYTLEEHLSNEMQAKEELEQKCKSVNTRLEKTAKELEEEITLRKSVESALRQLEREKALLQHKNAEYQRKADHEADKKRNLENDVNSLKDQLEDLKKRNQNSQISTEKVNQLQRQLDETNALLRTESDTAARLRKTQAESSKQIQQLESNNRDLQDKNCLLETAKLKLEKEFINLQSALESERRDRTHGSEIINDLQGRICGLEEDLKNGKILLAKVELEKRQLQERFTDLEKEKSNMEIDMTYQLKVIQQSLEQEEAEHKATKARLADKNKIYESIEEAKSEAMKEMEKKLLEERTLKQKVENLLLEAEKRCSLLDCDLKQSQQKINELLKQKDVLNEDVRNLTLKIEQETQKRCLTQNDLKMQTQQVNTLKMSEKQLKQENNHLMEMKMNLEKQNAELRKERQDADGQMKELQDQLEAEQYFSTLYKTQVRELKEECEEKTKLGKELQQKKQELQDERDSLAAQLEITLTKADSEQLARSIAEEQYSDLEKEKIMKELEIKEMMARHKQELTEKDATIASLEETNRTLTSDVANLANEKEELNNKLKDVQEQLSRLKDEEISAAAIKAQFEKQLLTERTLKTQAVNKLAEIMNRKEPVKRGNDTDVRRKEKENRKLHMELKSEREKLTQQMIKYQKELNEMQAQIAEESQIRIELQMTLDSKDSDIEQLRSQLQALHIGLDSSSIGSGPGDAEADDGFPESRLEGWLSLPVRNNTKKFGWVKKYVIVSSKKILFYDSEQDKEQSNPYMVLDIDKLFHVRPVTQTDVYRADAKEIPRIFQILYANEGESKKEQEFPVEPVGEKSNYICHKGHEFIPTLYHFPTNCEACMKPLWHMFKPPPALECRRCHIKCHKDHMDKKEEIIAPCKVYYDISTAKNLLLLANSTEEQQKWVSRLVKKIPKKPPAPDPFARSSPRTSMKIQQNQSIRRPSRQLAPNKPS
UniProt P48736, whole entry, looked up, stated change not applied: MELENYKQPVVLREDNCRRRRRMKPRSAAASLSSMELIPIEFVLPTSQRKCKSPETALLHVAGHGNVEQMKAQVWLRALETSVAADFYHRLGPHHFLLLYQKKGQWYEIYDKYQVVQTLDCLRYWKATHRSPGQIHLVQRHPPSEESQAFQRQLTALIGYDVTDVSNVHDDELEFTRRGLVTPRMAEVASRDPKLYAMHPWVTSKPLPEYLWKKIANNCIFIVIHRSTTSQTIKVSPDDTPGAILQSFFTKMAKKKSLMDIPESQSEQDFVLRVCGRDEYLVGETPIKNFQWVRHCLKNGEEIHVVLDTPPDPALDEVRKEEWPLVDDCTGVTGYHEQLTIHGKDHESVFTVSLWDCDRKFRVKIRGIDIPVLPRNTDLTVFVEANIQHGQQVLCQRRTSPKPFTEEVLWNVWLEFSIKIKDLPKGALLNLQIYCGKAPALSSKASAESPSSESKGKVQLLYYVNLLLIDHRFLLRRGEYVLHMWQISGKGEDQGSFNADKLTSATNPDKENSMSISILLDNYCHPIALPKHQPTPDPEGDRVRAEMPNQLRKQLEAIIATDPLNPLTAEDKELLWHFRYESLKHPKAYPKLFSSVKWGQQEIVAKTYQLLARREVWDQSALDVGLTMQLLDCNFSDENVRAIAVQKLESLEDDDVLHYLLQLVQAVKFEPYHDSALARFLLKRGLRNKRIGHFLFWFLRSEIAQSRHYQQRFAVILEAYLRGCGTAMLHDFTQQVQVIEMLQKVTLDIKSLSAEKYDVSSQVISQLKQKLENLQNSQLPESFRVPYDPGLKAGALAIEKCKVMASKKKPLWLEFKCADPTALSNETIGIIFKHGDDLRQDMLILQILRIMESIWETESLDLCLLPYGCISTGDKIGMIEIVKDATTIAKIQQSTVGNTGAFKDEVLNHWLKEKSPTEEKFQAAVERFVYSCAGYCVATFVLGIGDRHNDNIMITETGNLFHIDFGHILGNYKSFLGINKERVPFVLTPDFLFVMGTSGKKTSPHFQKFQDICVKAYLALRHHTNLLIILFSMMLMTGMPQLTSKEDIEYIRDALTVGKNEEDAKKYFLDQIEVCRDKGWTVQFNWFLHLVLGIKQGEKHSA
UniProt P42338: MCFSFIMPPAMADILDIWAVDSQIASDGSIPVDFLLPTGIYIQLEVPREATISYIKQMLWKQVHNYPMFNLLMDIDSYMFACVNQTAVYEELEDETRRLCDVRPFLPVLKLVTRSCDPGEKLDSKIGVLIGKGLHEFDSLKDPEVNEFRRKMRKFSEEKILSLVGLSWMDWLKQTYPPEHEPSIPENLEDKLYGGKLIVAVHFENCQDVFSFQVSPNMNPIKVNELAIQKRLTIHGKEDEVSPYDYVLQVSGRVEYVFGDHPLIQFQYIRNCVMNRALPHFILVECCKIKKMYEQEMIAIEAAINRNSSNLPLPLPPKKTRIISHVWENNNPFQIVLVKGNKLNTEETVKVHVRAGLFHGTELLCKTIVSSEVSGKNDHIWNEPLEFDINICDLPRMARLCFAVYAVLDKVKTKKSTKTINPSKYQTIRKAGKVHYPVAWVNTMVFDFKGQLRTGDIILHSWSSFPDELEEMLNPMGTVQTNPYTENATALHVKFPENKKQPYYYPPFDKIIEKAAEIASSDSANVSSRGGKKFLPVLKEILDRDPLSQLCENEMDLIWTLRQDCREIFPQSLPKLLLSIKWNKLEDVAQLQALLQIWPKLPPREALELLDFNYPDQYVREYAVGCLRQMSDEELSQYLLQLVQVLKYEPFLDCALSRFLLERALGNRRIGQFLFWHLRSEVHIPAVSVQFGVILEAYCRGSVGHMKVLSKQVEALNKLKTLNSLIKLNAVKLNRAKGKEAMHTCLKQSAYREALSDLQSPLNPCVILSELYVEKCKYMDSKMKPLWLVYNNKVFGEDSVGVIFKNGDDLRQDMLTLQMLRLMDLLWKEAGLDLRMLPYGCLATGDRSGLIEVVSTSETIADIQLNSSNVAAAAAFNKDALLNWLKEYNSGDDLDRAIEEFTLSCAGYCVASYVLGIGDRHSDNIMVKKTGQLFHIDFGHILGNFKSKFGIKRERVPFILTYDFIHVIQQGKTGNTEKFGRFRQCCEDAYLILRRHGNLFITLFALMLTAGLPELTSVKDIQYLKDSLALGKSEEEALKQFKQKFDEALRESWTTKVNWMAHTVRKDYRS
UniProt P00533, whole entry, looked up: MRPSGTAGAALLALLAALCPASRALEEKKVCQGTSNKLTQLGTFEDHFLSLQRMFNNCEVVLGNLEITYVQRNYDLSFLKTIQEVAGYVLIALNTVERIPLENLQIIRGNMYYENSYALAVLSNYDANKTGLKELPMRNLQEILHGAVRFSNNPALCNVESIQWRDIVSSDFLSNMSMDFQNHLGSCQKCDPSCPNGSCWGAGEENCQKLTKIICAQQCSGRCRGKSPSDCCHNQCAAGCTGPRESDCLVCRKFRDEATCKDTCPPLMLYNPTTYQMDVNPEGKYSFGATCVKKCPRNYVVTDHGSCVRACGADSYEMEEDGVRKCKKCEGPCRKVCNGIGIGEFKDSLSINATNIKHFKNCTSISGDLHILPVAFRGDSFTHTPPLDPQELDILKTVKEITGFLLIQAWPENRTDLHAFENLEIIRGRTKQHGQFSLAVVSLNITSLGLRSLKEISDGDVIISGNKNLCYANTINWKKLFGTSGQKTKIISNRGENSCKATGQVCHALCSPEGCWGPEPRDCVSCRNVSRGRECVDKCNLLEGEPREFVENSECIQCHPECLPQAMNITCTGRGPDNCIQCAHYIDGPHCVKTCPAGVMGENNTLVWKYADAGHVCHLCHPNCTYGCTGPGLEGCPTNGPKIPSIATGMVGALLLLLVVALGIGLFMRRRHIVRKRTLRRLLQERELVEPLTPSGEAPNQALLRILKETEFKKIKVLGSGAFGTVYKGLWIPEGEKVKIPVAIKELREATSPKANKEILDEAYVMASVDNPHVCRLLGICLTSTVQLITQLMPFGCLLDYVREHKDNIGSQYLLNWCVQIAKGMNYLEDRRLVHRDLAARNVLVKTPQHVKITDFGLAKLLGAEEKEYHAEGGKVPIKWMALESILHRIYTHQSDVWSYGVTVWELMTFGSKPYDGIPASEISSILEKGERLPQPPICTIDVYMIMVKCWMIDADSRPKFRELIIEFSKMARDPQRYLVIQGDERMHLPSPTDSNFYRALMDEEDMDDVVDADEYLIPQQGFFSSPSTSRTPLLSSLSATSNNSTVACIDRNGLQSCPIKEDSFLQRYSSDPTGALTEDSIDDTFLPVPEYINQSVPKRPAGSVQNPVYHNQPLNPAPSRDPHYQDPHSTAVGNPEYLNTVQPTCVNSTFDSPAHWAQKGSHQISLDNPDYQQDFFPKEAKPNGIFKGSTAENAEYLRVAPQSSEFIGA

Columns and labels:
MAPK14 (human) [1] = target: MAPK14 (human) (UniProt Q16539); assay: Inhibition of MAPK14 Kinase Activity
PIK3CA (human) [2] = target: PIK3CA (human) (UniProt P42336); assay: Inhibition of PIK3CA Kinase Activity
CDK2 = CDK2 (UniProt P24941); assay: Enzyme Assay
ROCK2 (human) [3] = target: ROCK2 (human) (UniProt O75116); assay: Assessment of ROCK2 Kinase Activity using IMAP Assay
ROCK2 (human) [4] = target: ROCK2 (human) (UniProt O75116); assay: Inhibition of ROCK2 Kinase Activity
[5] = target: PIK3CG (Human), P48736 [Inhibition of PIK3CD Kinase Activity]; assay: Enzyme Assay
PIK3CG (human) [6] = target: PIK3CG (human) (UniProt P48736); assay: Inhibition of PIK3CG Kinase Activity
PIK3CG (human) [7] = target: PIK3CG (human) (UniProt P48736); assay: Inhibition of PIK3CG Kinase Activity; remark: listed apart in the source
PIK3CB (Human) = PIK3CB (Human) (UniProt P42338)
EGFR [8] = target: EGFR (UniProt P00533)
PIK3CA (human) [9] = target: PIK3CA (human) (UniProt P42336); assay: Enzyme Assay
CDK2 (Human) [10] = target: CDK2 (Human) (UniProt P24941)
CDK2 (Human) [11] = target: CDK2 (Human) (UniProt P24941); remark: listed apart in the source
EGFR (human) [12] = target: EGFR (human) (UniProt P00533); conditions: a431
MAPK14 (human) [13] = target: MAPK14 (human) (UniProt Q16539); assay: Assessment of MAPK14 Kinase Activity
EGFR (human) [14] = target: EGFR (human) (UniProt P00533); conditions: a431; remark: listed apart in the source
CDK2 (human) [15] = target: CDK2 (human) (UniProt P24941)
CDK2 (human) [16] = target: CDK2 (human) (UniProt P24941); assay: Enzyme Assay
EGFR (human) [17] = target: EGFR (human) (UniProt P00533); conditions: a431; remark: listed apart in the source
EGFR [18] = target: EGFR (UniProt P00533); remark: listed apart in the source
PIK3CA (human) [19] = target: PIK3CA (human) (UniProt P42336); assay: Assessment of Cell Proliferation in T47D Cells Using MTT Assay; conditions: t-47d
PIK3CA (human) [20] = target: PIK3CA (human) (UniProt P42336); assay: Assessment of Cell Proliferation in SK-BR3 Cells Using MTT Assay; conditions: skbr3

- IC50 (MAPK14 (human) [1]): 3.9 nM
SMILES: Cc1ccc(C(=O)NC2CC2)cc1-c1cc2cnnc(-c3ccccc3C(F)(F)F)c2n(C)c1=O

- IC50 (PIK3CA (human) [2]): 1.4 nM
SMILES: CC(C)Oc1nc(-c2ccc(NC(=O)Nc3ccc(C(=O)NC4CCN(C)CC4)cc3)cc2)nc(N2CCOCC2)n1

- IC50 (CDK2): 77 nM
SMILES: CC(C(=O)Nc1cc(C2CC2)[nH]n1)c1ccc(N2C(=O)CCC2=O)cc1 (stereo unspecified)

- IC50 (ROCK2 (human) [3]): 1.1 nM
SMILES: N[C@H]1CCc2nc(NC(=O)c3cccc(CNC(=O)c4csc(-c5ccncc5)n4)c3)sc2C1

- IC50 (ROCK2 (human) [4]): 10 nM
SMILES: O=C(Nc1nc(-c2ccncc2)cs1)N[C@H](CO)c1ccccc1

- IC50 [5]: 3020 nM
- IC50 (PIK3CG (human) [6]): 6500 nM
- IC50 (PIK3CG (human) [7]): 10000 nM
- IC50 (PIK3CB (Human)): 560 nM
SMILES: O=c1cc(N2CCOCC2)oc2c(-c3ccccc3)cccc12

- IC50 (EGFR [8]): 4 nM
SMILES: CNc1ccc2c(Nc3cccc(Br)c3)ncnc2c1

- IC50 (PIK3CA (human) [9]): 113 nM
SMILES: COc1ncc(N2CCc3ncnc(N[C@H]4CCN(C(=O)[C@H]5CC[C@H](OC)CC5)C4)c3C2)cc1C(F)(F)F

- IC50 (CDK2 (Human) [10]): 1500 nM
- IC50 (CDK2 (Human) [11]): 2200 nM
SMILES: COc1ccccc1[C@@H]1C2=C(CC(C)(C)CC2=O)Nc2n[nH]c(C)c21

SMILES: CCOc1cc2ncc(C#N)c(Nc3ccc(OCc4ccccn4)c(Cl)c3)c2cc1NC(=O)/C=C/[C@@H]1CCCN1C
- IC50 (EGFR (human) [12]): 22 nM

- IC50 (MAPK14 (human) [13]): 16 nM
SMILES: CC[C@@H](NC(=O)c1cn2ncnc(Nc3cc(NC(=O)c4ccc(C#N)cc4)ccc3C)c2c1C)OC

- IC50 (PIK3CA (human) [2]): 26 nM
SMILES: OCc1cccc(-c2nc(N3CCOCC3)c3cnn(C4CCNCC4)c3n2)c1

- IC50 (EGFR (human) [14]): 1030 nM
SMILES: COc1cc2ncc(C#N)c(Nc3ccc(F)c(Cl)c3)c2cc1OC

- IC50 (CDK2 (human) [15]): 40 nM
SMILES: NC1=NC(=O)/C(=C2\CCNC(=O)C3NC(Br)=CC23)N1 (stereo unspecified)

- IC50 (CDK2 (human) [16]): 26500 nM
SMILES: N#Cc1ccc(-c2ccc3c(c2)/C(=C/Nc2ccc(CN4CCCCC4)cc2)C(=O)NC3=O)cc1

- IC50 (EGFR (human) [17]): 0.65 µg/mL (≈ 1.87 µM)
SMILES: COc1cc2ncc(C#N)c(Nc3cccc(N(C)C)c3)c2cc1OC

- IC50 (MAPK14 (human) [1]): 40 nM
SMILES: Cc1ccc(C(N)=O)cc1-c1nnc2ccc(CCc3ccc(F)cc3F)cn12

- IC50 (EGFR [18]): 500 nM
SMILES: COc1cc2ncnc(Nc3cc(OC)c(OC)c(OC)c3)c2cc1OC

- IC50 (CDK2): 1000 nM
SMILES: c1ccc(Nc2nc(OCC3CCCCC3)c3nc[nH]c3n2)cc1

- IC50 (PIK3CA (human) [2]): 16 nM
- IC50 (PIK3CA (human) [19]): 700 nM
- IC50 (PIK3CA (human) [20]): 3700 nM
SMILES: COc1ccc(-c2c[nH]c3ncc(-c4cnc(N)c(S(=O)(=O)N5CCOCC5)c4)cc23)cc1OC

- IC50 (PIK3CA (human) [9]): 54 nM
SMILES: COc1ncc(N2CCc3ncnc(N[C@H]4CCN(C(=O)[C@H]5CC[C@@H](OC)CC5)C4)c3C2)cc1C(F)(F)F

SMILES: CCOc1cc2ncc(C#N)c(Nc3ccc(OCc4ccccn4)c(Cl)c3)c2cc1NC(=O)/C=C/[C@H]1CCCN1C
- IC50 (EGFR (human) [12]): 45 nM

- IC50 (MAPK14 (human) [1]): 2.9 nM
SMILES: Cc1ccc(C(=O)NC2CC2)cc1-c1cc2cnnc(-c3ccc(C(F)(F)F)cc3F)c2n(C)c1=O

- IC50 (CDK2): 2300 nM
SMILES: Clc1cccc(Nc2nc(OCC3CCCCC3)c3nc[nH]c3n2)c1

- IC50 (CDK2 (human) [16]): 2600 nM
SMILES: Cc1cc2c(=O)c(O)c(-c3ccc(O)c(O)c3)oc2c2c1CCCCC2
